Results published in patent US20040072753.

Test system: Aβ 1-40

## recombinant p34-cdc2/cyclin B1 (Promega)
  Michaelis constant (KM) for the phosphorylation: 5.2 µM
